ChEMBL document CHEMBL1135372, “3-Aryl pyridone derivatives. Potent and selective kappa opioid receptor agonists” (Bioorg Med Chem Lett, 2002)

Chains of the proteins cited; added tags and fusions are not shown.
UniProt P35372, whole entry, looked up: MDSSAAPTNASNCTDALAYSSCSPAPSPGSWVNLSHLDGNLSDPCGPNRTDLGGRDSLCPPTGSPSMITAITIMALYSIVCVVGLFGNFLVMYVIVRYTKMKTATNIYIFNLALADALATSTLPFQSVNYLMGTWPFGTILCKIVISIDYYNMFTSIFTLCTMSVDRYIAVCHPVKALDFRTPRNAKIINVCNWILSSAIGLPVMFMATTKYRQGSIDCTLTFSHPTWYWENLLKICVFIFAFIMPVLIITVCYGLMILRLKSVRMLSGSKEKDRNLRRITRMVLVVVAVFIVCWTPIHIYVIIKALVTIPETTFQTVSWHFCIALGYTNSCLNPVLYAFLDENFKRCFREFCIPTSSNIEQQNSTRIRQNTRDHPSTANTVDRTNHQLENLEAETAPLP
UniProt P41143, whole entry, looked up: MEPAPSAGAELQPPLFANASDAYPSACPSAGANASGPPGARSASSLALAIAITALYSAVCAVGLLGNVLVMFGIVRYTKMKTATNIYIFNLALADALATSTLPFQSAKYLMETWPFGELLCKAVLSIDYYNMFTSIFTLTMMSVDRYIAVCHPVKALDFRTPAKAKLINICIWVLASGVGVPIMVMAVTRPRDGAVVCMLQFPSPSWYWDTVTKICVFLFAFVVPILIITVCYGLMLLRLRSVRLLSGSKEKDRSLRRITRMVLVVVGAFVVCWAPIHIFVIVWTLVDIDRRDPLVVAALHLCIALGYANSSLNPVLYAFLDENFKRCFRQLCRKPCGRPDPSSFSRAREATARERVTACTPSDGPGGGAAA

Assays:
Mu-type opioid receptor = Mu-type opioid receptor (Homo sapiens, UniProt P35372)
[1] = target: Delta-type opioid receptor (Homo sapiens, UniProt P41143); assay: Binding affinity towards Opioid receptor delta 1 by the displacement of [125I]-Deltorphin

## CN(C(=O)Cc1ccccc1)[C@H]1CC[C@@]2(CCCO2)C[C@@H]1N1CCCC1
Mu-type opioid receptor
  IC50: 0.248 µM
[1]
  IC50: 5.84 µM
